Like-named read-outs stand apart in the source and are kept apart here.

This passage reports IC50 results from patent publication US20230391826A1 (SANFORD BURNHAM PREBYS MEDICAL DISCOVERY INSTITUTE, published 2023).

Test [1] has as its target T1, EphA2 extracellular domain fused to the Fc portion of an antibody (EphA2-Fc).
T1 construct: extracellular domain; Immobilized on the ELISA wells; also called immobilized EphA2
In words: ELISA, inhibition of ephrinA5-AP binding to immobilized EphA2-Fc. In general terms: An ELISA detects its analyte on a solid surface through an enzyme-linked reagent.

The target of test [2] is T1, EphA2 extracellular domain fused to the …. Described as above. This is another data set of the same source.

B1: CcamGA-WLA-YRPK-bio (peptide)
peptide: CGAWLAYPDSVPYRPK
modifications: N-terminal carbamidomethyl-cysteine (Ccam); biotin on the C-terminal Lys
notes: also called monomer (10); monomeric peptide (10)
Regarding B1, the concentration for half-maximal inhibition (IC50) in test [1] and in test [2] was 27 nM in each case.

In general, IC50 refers to the midpoint of a concentration-inhibition curve.
